Laboratory results: article PMC10439158, “The net electrostatic potential and hydration of ABCG2 affect substrate transport” (Nature Communications, 2023)

Protein sequences, listed by entry. Tags and fused reporters are not part of them. Lines headed by an entry give the natural chain unless they say otherwise; changes in a name come on top.
UniProt Q9UNQ0: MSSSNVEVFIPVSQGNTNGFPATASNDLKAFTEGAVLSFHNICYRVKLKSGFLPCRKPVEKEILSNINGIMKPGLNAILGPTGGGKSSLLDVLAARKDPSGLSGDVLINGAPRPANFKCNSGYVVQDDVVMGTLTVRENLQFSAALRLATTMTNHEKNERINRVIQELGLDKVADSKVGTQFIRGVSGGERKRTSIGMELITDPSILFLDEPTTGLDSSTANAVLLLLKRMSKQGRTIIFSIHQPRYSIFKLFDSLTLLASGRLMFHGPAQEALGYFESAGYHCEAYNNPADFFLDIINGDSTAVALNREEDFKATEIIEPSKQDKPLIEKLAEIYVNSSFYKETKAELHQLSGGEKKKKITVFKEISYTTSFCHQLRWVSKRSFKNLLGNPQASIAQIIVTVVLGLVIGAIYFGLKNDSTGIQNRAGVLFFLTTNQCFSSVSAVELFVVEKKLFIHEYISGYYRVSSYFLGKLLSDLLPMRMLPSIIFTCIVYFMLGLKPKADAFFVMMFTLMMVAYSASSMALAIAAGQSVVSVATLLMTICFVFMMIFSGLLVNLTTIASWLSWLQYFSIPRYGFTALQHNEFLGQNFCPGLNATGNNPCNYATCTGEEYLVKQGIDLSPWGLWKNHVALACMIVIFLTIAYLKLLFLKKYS

Biological target: ABCG2 (Homo sapiens, UniProt Q9UNQ0)
Test: cell-based
Design: full-length ABCG2-WT in MEF cells; species or system Abcg2-KO MEFs expressing human ABCG2-WT; Inhibition of ABCG2-mediated Hoechst 33342 efflux; intracellular Hoechst 33342 fluorescence accumulation, normalized to vector control
Conditions: 0.5 uM Hoechst 33342 substrate, 2 h, 37 °C; read-out: IC50 for transport inhibition in WT

How did the IC50 turn out when `COc1cc2ncnc(Nc3ccc(F)c(Cl)c3)c2cc1OCCCN1CCOCC1` [gefitinib] was run?
The IC50 was 510 nM.
